Test results published in patent US20190256994A1, “Electrochemical Deposition of Elements in Aqueous Media” (LumiShield Technologies Incorporated, priority 2016, published 2019).
Like-named read-outs stand apart in the source and are kept apart here.

Columns and labels:
[1] = type: physicochemical
[2] = type: physicochemical; remark: listed apart in the source
[3] = in water
[4] = 0.5 M aluminum in water, pH as in same row (not adjusted), glassy carbon vs Ag/AgCl (3 M NaCl)
[5] = 0.5 M aluminum aqueous solution, not adjusted
[6] = 1 M aluminum in water, pH as in same row, glassy carbon working electrode vs Ag/AgCl (3 M NaCl), 50 mV/s

Substance | Reduction onset potential/V [1, 4] | pH [2, 5] | Reduction onset potential/V [1, 6] [V] | pH ([2]; 1 M aluminum aqueous solution) | also measured
Aluminum p-toluenesulphonate [Al(OTs)6] | −0.93 V | 0.24 |  |  | Reduction onset potential/V ([1]; 0.5 M aluminum in water, pH adjusted to 1.35 with NH4OH, glassy carbon vs Ag/AgCl (3 M NaCl)): −1.17 V; pH ([2]; 0.5 M aluminum aqueous solution, after pH adjustment): 1.35
Aluminum bis(trifluoromethane)sulfonimide [Al(Tf2N)1] |  |  | −1.20 | 3.30 | 
Aluminum trifluoromethanesulfonate [Al(OTf)6] |  |  | −1.35 | 2.82 | 
Aluminum methanesulfonate [Al(MS)1] |  |  |  |  | Reduction onset potential/V ([1]; 3 M aluminum in water, pH 3.15, glassy carbon vs Ag/AgCl (3 M NaCl), 50 mV/s): −1.12 V; pH ([2]; 3 M aluminum aqueous solution): 3.15
Aluminum bis(trifluoromethane)sulfonimide [Al(Tf2N)3] |  |  |  | 1.91 | stability in solution [3]: stable in solution for months
Aluminum methanesulfonate [Al(MS)6] |  |  | −1.11 | 1.00 | 
Aluminum methanesulfonate [Al(MS)3] |  |  |  | 2.47 | peak potential for Al3+ reduction ([1]; 1 M in water, pH 2.47, vs Ag/AgCl (3 M NaCl)): about −1.3 V
Aluminum trifluoroacetate [Al(TFA)6] | only gas | 0.78 |  |  | Reduction onset potential/V ([1]; 0.5 M aluminum in water, pH 1.18 (adjusted), glassy carbon vs Ag/AgCl (3 M NaCl)): −1.07 V; Reduction onset potential/V ([1]; 0.5 M aluminum in water, pH 3.34 (adjusted), glassy carbon vs Ag/AgCl (3 M NaCl)): −1.32 V
Aluminum trifluoroacetate [Al(TFA)3] | −1.10 V | 3.17 |  |  | 
Aluminum p-toluenesulphonate [Al(OTs)3] |  |  | −1.13 | 2.36 | 
